Experimental data published in publication PMC12415213, “A genome-scale drug discovery pipeline uncovers therapeutic targets and a unique p97 allosteric binding site in Schistosoma mansoni” (Proceedings of the National Academy of Sciences of the …, 2025).

By UniProt entry, the sequences of proteins in these tests, tags left out.
UniProt G4M0P7, entry or part of it: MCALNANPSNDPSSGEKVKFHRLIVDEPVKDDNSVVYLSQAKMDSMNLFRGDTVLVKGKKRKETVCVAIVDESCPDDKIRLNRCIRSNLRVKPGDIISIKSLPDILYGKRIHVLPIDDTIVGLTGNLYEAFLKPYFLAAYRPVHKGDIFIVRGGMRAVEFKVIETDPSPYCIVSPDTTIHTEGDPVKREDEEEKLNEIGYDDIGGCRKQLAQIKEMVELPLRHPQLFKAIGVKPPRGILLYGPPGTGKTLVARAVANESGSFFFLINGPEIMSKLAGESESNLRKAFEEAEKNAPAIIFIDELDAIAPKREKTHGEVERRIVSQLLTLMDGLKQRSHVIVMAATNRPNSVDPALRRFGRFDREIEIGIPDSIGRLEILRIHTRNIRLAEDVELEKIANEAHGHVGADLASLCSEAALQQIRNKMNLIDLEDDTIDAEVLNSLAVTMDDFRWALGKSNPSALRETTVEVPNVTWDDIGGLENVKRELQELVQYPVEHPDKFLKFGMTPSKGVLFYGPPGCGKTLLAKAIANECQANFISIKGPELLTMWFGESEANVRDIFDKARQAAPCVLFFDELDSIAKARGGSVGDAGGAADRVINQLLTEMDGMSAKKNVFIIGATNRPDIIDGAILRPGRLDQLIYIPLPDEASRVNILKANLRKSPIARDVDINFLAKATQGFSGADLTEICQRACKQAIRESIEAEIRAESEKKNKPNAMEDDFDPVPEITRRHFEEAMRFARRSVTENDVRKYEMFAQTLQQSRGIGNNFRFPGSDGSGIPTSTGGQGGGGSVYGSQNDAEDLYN
UniProt P55072, whole entry: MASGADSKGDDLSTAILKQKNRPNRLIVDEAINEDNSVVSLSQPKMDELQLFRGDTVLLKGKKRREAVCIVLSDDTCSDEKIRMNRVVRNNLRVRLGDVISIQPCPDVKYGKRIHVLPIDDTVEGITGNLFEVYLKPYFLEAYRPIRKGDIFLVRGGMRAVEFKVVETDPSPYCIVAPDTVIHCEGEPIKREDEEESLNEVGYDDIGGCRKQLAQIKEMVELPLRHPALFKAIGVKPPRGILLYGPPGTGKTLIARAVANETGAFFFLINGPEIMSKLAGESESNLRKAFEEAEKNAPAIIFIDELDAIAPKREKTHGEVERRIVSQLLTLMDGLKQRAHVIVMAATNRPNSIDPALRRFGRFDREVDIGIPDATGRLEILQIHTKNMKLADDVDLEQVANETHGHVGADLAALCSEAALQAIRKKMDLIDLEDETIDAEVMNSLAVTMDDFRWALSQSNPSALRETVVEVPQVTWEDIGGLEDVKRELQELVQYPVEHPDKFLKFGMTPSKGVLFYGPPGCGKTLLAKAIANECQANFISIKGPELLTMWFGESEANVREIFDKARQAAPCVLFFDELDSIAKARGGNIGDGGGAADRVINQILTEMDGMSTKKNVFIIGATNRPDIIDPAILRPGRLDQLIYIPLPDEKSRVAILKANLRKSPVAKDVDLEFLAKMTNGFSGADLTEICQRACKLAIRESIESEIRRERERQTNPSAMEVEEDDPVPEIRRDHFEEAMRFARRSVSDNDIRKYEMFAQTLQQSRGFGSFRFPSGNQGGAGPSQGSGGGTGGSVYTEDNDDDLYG

Legend:
[1] = molecular target: S. mansoni p97 (Smp_018240) (Schistosoma mansoni, UniProt G4M0P7); format: biochemical
Experimental: Evaluation of p97’s ATPase activity and compound potency
For manual ATP consumption assays, 1 µM p97 was incubated with 1% DMSO or inhibitor (1% DMSO final) in assay buffer [50 mM Tris (pH 7.5), 20 mM MgCl2, 1 mM EDTA, 0.5 mM tris(2-carboxyethyl)phosphine (TCEP)] for 5 minutes prior to the addition of 20 µM ATP in a 384-well plate for a total reaction volume of 10 µL, and a final concentration of 500nM enzyme and 10 µM ATP. The reaction was allowed to proceed for 50 minutes at room temperature before adding equivalent volume of Kinase-Glo Plus reagent (Promega), and a further incubation of 10 minutes in the dark. Luminescence was read using a BioTek Synergy 2 plate reader […]
1 μM, 500 nM, 100 nM, 50 nM, 10 nM, 5 nM, 1 nM, and 0 nM) in triplicate, maintaining a concentration of 1% […]
were calculated using GraphPad Prism. […]

H. sapiens p97 (P55072) = molecular target: T1, H. sapiens p97 (P55072) (Homo sapiens, UniProt P55072); assay: Kinase-Glo ATP consumption assay, recombinant H. sapiens p97; format: biochemical; conditions: recombinant Hsp97, Kinase-Glo, 100 μM to 1 nM; NA = no notable effect on the enzyme at tested concentrations; >100 = IC50 predicted above 100 μM or maximal inhibition not achieved
T1 construct: purified recombinant full-length (1-806aa) H; 6xHis (N); made in house; host or cells: E. coli BL21 (DE3)

adult S. mansoni = assay: Single-concentration (10 μM) treatment of adult worms, attachment and morphology; format: cell-based, Schistosoma mansoni; conditions: in vitro culture
Experimental: DMSO). All selected compounds were obtained from commercial vendors (Medchemexpress, Selleck Chemicals, Sigma-Aldrich, ApexBio, Tocris, Santa Cruz Biotechnology, and Cayman Chemical Company) (Dataset S4) with […]
the activity of the desired compounds. Roughly 5 adult worm pairs were placed in 3mL Basch medium in a 12-well culture vessel, and incubated at 37° C, 5% CO2 for the length of the experiment. Compound was administered at D0, D1, and D2, media and drug refreshed every 24 hr. Worms were then allowed to remain in culture until D5, where a final assessment of worm attachment to tissue culture substate was made by light microscopy.
Observations on movement and morphology were also recorded. A negative control (0.1% DMSO) and positive control (PZQ; 10 µM in 0.1% DMSO) were included in each experiment, and each experiment was repeated in triplicate for validation. […]

Structure (SMILES) | Fold Selectivity (parasite enzyme over human enzyme) [1] [fold] | IC50 [1] [µM] | IC50 (H. sapiens p97 (P55072)) [µM] | phenotype of adult worms after treatment (adult S. mansoni)
O=C(C#CC1CCCCC1)Nc1ccc2oc(-c3ccccn3)nc2c1 [Compound 733] | 1.3 | 34 ± 1.6 | 43 ± 4.4 | still active on worms
O=C(C#Cc1ccncc1)Nc1ccc2oc(-c3ccc(C(F)(F)F)cn3)nc2c1 [Compound 808] | 2.3 | 0.18 ± 0.026 | 0.41 ± 0.084 | –
